In patent US8642284:

Molecular target: histone H3 (calf thymus), intact protein

| Protein | ADP-ribosyltransferase activity (32P-NAD) |
| --- | --- |
| recombinant 6xHis-tagged ySir2p mutant Asn-345 (to alanine) (protein) HHHHHHMTIPHMKYAVSKTSENKVSNTVSPTQDKDAIRKQPDDIINNDEPSHKKIKVAQPDSLRETNTTDPLGHTKAALGEVASMELKPTNDMDPLAVSAASVVSMSNDVLKPETPKGPIIISKNPSNGIFYGPSFTKRESLNARMFLKYYGAHKFLDTYLPEDLNSLYIYYLIKLLGFEVKDQALIGTINSIVHINSQERVQDLGSAISVTNVEDPLAKKQTVRLIKDLQRAINKVLCTRLRLSNFFTIDHFIQKLHTARKILVLTGAGVSTSLGIPDFRSSEGFYSKIKHLGLDDPQDVFNYNIFMHDPSVFYNIANMVLPPEKIYSPLHSFIKMLQMKGKLLRNYTQAIDNLESYAGISTDKLVQCHGSFATATCVTCHWNLPGERIFNKIRNLELPLCPYCYKKRREYFPEGYNNKVGVAASQGSMSERPPYILNSYGVLKPDITFFGEALPNKFHKSIREDILECDLLICIGTSLKVAPVSEIVNMVPSHVPQVLINRDPVKHAEFDLSLLGYCDDIAAMVAQKCGWTIPHKKWNDLKNKNFKCQEKDKGVYVVTSDEHPKTL | Mutants 345 and 347 were completely inactive |
| recombinant 6xHis-tagged ySir2p mutant Gly-270 (to alanine) (protein) HHHHHHMTIPHMKYAVSKTSENKVSNTVSPTQDKDAIRKQPDDIINNDEPSHKKIKVAQPDSLRETNTTDPLGHTKAALGEVASMELKPTNDMDPLAVSAASVVSMSNDVLKPETPKGPIIISKNPSNGIFYGPSFTKRESLNARMFLKYYGAHKFLDTYLPEDLNSLYIYYLIKLLGFEVKDQALIGTINSIVHINSQERVQDLGSAISVTNVEDPLAKKQTVRLIKDLQRAINKVLCTRLRLSNFFTIDHFIQKLHTARKILVLTGAGVSTSLAIPDFRSSEGFYSKIKHLGLDDPQDVFNYNIFMHDPSVFYNIANMVLPPEKIYSPLHSFIKMLQMKGKLLRNYTQNIDNLESYAGISTDKLVQCHGSFATATCVTCHWNLPGERIFNKIRNLELPLCPYCYKKRREYFPEGYNNKVGVAASQGSMSERPPYILNSYGVLKPDITFFGEALPNKFHKSIREDILECDLLICIGTSLKVAPVSEIVNMVPSHVPQVLINRDPVKHAEFDLSLLGYCDDIAAMVAQKCGWTIPHKKWNDLKNKNFKCQEKDKGVYVVTSDEHPKTL | mutants 261, 270, and 271 displayed very weak activity, 4%, 7%, and 8%, respectively |
| recombinant 6xHis-tagged ySir2p mutant Thr-261 (to alanine) (protein) HHHHHHMTIPHMKYAVSKTSENKVSNTVSPTQDKDAIRKQPDDIINNDEPSHKKIKVAQPDSLRETNTTDPLGHTKAALGEVASMELKPTNDMDPLAVSAASVVSMSNDVLKPETPKGPIIISKNPSNGIFYGPSFTKRESLNARMFLKYYGAHKFLDTYLPEDLNSLYIYYLIKLLGFEVKDQALIGTINSIVHINSQERVQDLGSAISVTNVEDPLAKKQTVRLIKDLQRAINKVLCTRLRLSNFFTIDHFIQKLHTARKILVLAGAGVSTSLGIPDFRSSEGFYSKIKHLGLDDPQDVFNYNIFMHDPSVFYNIANMVLPPEKIYSPLHSFIKMLQMKGKLLRNYTQNIDNLESYAGISTDKLVQCHGSFATATCVTCHWNLPGERIFNKIRNLELPLCPYCYKKRREYFPEGYNNKVGVAASQGSMSERPPYILNSYGVLKPDITFFGEALPNKFHKSIREDILECDLLICIGTSLKVAPVSEIVNMVPSHVPQVLINRDPVKHAEFDLSLLGYCDDIAAMVAQKCGWTIPHKKWNDLKNKNFKCQEKDKGVYVVTSDEHPKTL | mutants 261, 270, and 271 displayed very weak activity, 4%, 7%, and 8%, respectively |
| recombinant 6xHis-tagged ySir2p mutant Iso-271 (to alanine) (protein) HHHHHHMTIPHMKYAVSKTSENKVSNTVSPTQDKDAIRKQPDDIINNDEPSHKKIKVAQPDSLRETNTTDPLGHTKAALGEVASMELKPTNDMDPLAVSAASVVSMSNDVLKPETPKGPIIISKNPSNGIFYGPSFTKRESLNARMFLKYYGAHKFLDTYLPEDLNSLYIYYLIKLLGFEVKDQALIGTINSIVHINSQERVQDLGSAISVTNVEDPLAKKQTVRLIKDLQRAINKVLCTRLRLSNFFTIDHFIQKLHTARKILVLTGAGVSTSLGAPDFRSSEGFYSKIKHLGLDDPQDVFNYNIFMHDPSVFYNIANMVLPPEKIYSPLHSFIKMLQMKGKLLRNYTQNIDNLESYAGISTDKLVQCHGSFATATCVTCHWNLPGERIFNKIRNLELPLCPYCYKKRREYFPEGYNNKVGVAASQGSMSERPPYILNSYGVLKPDITFFGEALPNKFHKSIREDILECDLLICIGTSLKVAPVSEIVNMVPSHVPQVLINRDPVKHAEFDLSLLGYCDDIAAMVAQKCGWTIPHKKWNDLKNKNFKCQEKDKGVYVVTSDEHPKTL | mutants 261, 270, and 271 displayed very weak activity, 4%, 7%, and 8%, respectively |
| recombinant 6xHis-tagged ySir2p mutant Arg-275 (to alanine) (protein) HHHHHHMTIPHMKYAVSKTSENKVSNTVSPTQDKDAIRKQPDDIINNDEPSHKKIKVAQPDSLRETNTTDPLGHTKAALGEVASMELKPTNDMDPLAVSAASVVSMSNDVLKPETPKGPIIISKNPSNGIFYGPSFTKRESLNARMFLKYYGAHKFLDTYLPEDLNSLYIYYLIKLLGFEVKDQALIGTINSIVHINSQERVQDLGSAISVTNVEDPLAKKQTVRLIKDLQRAINKVLCTRLRLSNFFTIDHFIQKLHTARKILVLTGAGVSTSLGIPDFASSEGFYSKIKHLGLDDPQDVFNYNIFMHDPSVFYNIANMVLPPEKIYSPLHSFIKMLQMKGKLLRNYTQNIDNLESYAGISTDKLVQCHGSFATATCVTCHWNLPGERIFNKIRNLELPLCPYCYKKRREYFPEGYNNKVGVAASQGSMSERPPYILNSYGVLKPDITFFGEALPNKFHKSIREDILECDLLICIGTSLKVAPVSEIVNMVPSHVPQVLINRDPVKHAEFDLSLLGYCDDIAAMVAQKCGWTIPHKKWNDLKNKNFKCQEKDKGVYVVTSDEHPKTL | mutant 275 was about as active as wild type |
| recombinant 6xHis-tagged ySir2p mutant Asp-347 (to alanine) (protein) HHHHHHMTIPHMKYAVSKTSENKVSNTVSPTQDKDAIRKQPDDIINNDEPSHKKIKVAQPDSLRETNTTDPLGHTKAALGEVASMELKPTNDMDPLAVSAASVVSMSNDVLKPETPKGPIIISKNPSNGIFYGPSFTKRESLNARMFLKYYGAHKFLDTYLPEDLNSLYIYYLIKLLGFEVKDQALIGTINSIVHINSQERVQDLGSAISVTNVEDPLAKKQTVRLIKDLQRAINKVLCTRLRLSNFFTIDHFIQKLHTARKILVLTGAGVSTSLGIPDFRSSEGFYSKIKHLGLDDPQDVFNYNIFMHDPSVFYNIANMVLPPEKIYSPLHSFIKMLQMKGKLLRNYTQNIANLESYAGISTDKLVQCHGSFATATCVTCHWNLPGERIFNKIRNLELPLCPYCYKKRREYFPEGYNNKVGVAASQGSMSERPPYILNSYGVLKPDITFFGEALPNKFHKSIREDILECDLLICIGTSLKVAPVSEIVNMVPSHVPQVLINRDPVKHAEFDLSLLGYCDDIAAMVAQKCGWTIPHKKWNDLKNKNFKCQEKDKGVYVVTSDEHPKTL | Mutants 345 and 347 were completely inactive |
